Laboratory results published in patent US12331093B2, “Fusion polypeptides for metabolic disorders” (BEIJING QL BIOPHARMACEUTICAL CO., LTD., priority 2021, dated 2025).

The chains behind the UniProt entries cited, without tags or fusion partners. Residues count along the entry.
UniProt P43220, 24-463: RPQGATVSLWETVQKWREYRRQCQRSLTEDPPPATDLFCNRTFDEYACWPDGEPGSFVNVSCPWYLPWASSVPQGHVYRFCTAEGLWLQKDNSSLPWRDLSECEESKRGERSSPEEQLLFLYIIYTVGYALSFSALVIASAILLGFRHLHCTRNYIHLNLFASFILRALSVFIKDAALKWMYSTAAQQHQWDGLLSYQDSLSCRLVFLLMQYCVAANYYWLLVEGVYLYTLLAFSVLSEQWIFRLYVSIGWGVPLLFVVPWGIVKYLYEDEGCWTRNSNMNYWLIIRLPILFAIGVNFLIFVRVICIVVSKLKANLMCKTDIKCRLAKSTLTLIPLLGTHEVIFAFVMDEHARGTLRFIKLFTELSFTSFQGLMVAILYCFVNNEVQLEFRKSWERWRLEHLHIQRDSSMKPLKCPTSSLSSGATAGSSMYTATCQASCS

Assays:
[1] = molecular target: Human serum albumin (Homo sapiens, UniProt P02768); experiment: Human serum albumin binding by surface plasmon resonance (Biacore 8K); conditions: SPR, human serum albumin bound to CM5 chip
[2] = molecular target: T1, human beta-Klotho (Homo sapiens, UniProt Q86Z14); experiment: In vitro FGF21 activity, p-ERK levels in HEK293 cell line overexpressing human beta-Klotho; type: cell-based; conditions: Table 2, 1% HSA, 12 mins
T1 construct: expressed in transfected cells; host or cells: HEK293 cell line
Method: The in vitro FGF21 activities of the fusion protein were assessed using a HEK293 cell line overexpressing human beta-Klotho. Tested fusion protein conjugates were measured at 400 nM top concentration with 4-fold serial dilutions in the presence of 1% HSA. After cells were treated with fusion protein conjugates for 12 mins, p-ERK levels were measured by p-ERK kit (Cisbio, 64ERKPEH).
(§1) The activity of each fusion protein was represented by EC50, derived from non-linear regression analysis.

[3] = molecular target: T2, human GLP-1 receptor (Homo sapiens, UniProt P43220); experiment: In vitro GLP-1 activity, BHK cell line overexpressing human GLP-1 receptor and CRE luciferase reporter; type: cell-based; conditions: in the presence of 1% HSA, 4 hours
T2 construct: expressed in transfected cells; host or cells: BHK cell line
Method: Tested fusion proteins were measured at 100 nM as top concentration in the presence of 1% HSA with 3-fold serial dilutions. After cells were treated with molecules for 4 hours, luciferase activities were measured by Steadylite plus kit (Perkin Elmer, 6066751).
as §1

| Rmax (RU) [1] [RU] | EC50 [2] [nM] | EC50 [3] [nM] | Substance | Kd [1] [nM] |
| --- | --- | --- | --- | --- |
| 1289.8 | 2.26 | > 50 | Control#6: GLP1(del7-8, 22E, 36G)-(GAQP)5-ALB8-(GAQP)-FGF21 (121Q, 168L, 171G, 180E), SEQ ID NO: 78, GLP1 dead [reference compound] | 220 |
| 1604.0 | 1.35 | > 50 | Control#5: GLP1(del7-8, 22E, 36G)-(GAQP)5-ALB8-(GAQP)2-FGF21 (121Q, 168L, 171G, 180E), SEQ ID NO: 77, GLP1 dead [reference compound] | 220 |
| – | 2.1 | > 50 | Control#2: GLP1(del7-8, 22E, 36G)-(GAQP)5-ALB8-(GAQP)10-FGF21 (121Q, 168L, 171G, 180E), SEQ ID NO: 72, GLP1 dead [reference compound] | – |

More lines, now with the values behind:

| Substance | Rmax (RU) [1] [RU] | EC50 [2] [nM] | EC50 [3] [nM] | Kd [1] [nM] |
| --- | --- | --- | --- | --- |
| Control#4: GLP1(del7-8, 22E, 36G)-(GAQP)5-ALB8-(GAQP)5-FGF21 (121Q, 168L, 171G, 180E), SEQ ID NO: 76, GLP1 dead [reference compound] | 1252.0 | 1.47 | > 50 | 270 |
| Control#1: GLP1(del7-8, 22E, 36G)-(G4S)4-ALB8-G4SG3S-FGF21 (121Q, 168L, 171G, 180E), SEQ ID NO: 71, control to MLC#8, GLP1 dead [reference compound] | – | 1.04 | > 50 | – |
